{"sequences": {"note": "Protein sequences, listed by entry. Tags and fused reporters are not part of them. Residues count along the entry.", "UniProt P00433, 31-338": "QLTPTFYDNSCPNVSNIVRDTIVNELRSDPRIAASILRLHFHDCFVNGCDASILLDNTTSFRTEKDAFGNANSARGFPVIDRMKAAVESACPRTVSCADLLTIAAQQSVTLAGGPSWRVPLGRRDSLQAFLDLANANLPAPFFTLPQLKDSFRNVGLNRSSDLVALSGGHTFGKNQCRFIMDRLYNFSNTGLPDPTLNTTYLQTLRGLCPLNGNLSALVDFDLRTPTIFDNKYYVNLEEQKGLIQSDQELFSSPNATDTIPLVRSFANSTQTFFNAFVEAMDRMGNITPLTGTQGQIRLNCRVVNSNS"}, "source": "patent US9435795B2", "about": "“Enhanced deposition of chromogens utilizing pyrimidine analogs” (Ventana Medical Systems, Inc., priority 2010, dated 2016)", "biological_target": "T1, horseradish peroxidase (HRP) (Armoracia rusticana, UniProt P00433)", "T1 construct": "purchased VMSI (Ventana Medical Systems, Inc.) 760-500: 253-4290, 253-4292 and 253-4293", "assay": "Plate assay: kinetic screening of enhancers of HRP-mediated DAB oxidation (ultraView Detection Kit, OD 455 nm)", "type": "biochemical", "protocol": "The additives were directly added to a well containing the necessary reagents from the ultraView™ Detection Kit (VMSI 760-500: 253-4290, 253-4292 and 253-4293) in 1× Reaction Buffer (VMSI 950-300) and 0.1% fish gelatin. Fish gelatin was used to help disperse the oxidized DAB and inhibit its precipitation from solution. The ultraView™ Detection Kit was diluted to measure the formation of oxidized DAB by UV-VIS at 455 nm. Additives were tested at set concentrations to determine enhancement in the DAB oxidation reaction. The data were graphed, and the apparent maximum velocity (Vmax) was calculated at each additive concentration level.", "note": "“And” between values parts separate entries of the source, which are not always exact repeats. Identical values can stand only once."}
{"smiles": "c1c[nH]cn1", "note": "[Imidazole]", "values": [{"measurement": "Vmax (apparent, HRP-oxidized DAB)", "value": "38.80 mOD/min and 70.00 mOD/min"}]}
